Columns and labels:
[1] = test system: SKOV-3 human ovarian adenocarcinoma xenograft; assay: SK-OV-3 human ovarian xenograft antitumor efficacy; for MST (mean survival time): test concentration or dose not given here; for TI% (Tumor Inhibition): test concentration or dose not given here; assay type: in vivo, CB17 SCID mice; conditions: SKOV-3 xenograft, single i.p. LD10 dose on d-1
[2] = test system: CB17 SCID mice; assay: Acute toxicity after single i.p. injection; conditions: observed 30 days

In the case of `O=C(O)CCOc1ccc(N(CCCl)CCCl)cc1`, the “Cures (mice alive for 120 days after tumor inoculation)” value [1] is reported as 0/5, the “MST (mean survival time)” value [1] is reported as 47.7 ± 1.5 days and the “T/C% (mean survival time of treated versus saline controls)” value [1] is reported as 117.2%. For the same molecule, the “TI% (Tumor Inhibition)” value [1] was 12.0%, the LD10 [2] was 15 mg/kg and the LD50 [2] was 20 mg/kg.

Reference: publication PMC7281072 (Cancers, 2020)
